The values that follow come from US7115621B2, “Chemical compounds” (Lilly Icos LLC, priority 2001, dated 2006).

Each structure is given as a SMILES string.

The target in one test is PDE5 (bovine aorta) (Bos taurus, UniProt Q28156). Kind of test: Inhibitory effect on cGMP-PDE, one-step assay, enzyme from bovine aorta. The note with it: read-out: PDE5 IC50; Table 2, Intermediates; footnote 1) vs. bovine aorta.
Consider `CCOC(=O)[C@@H]1Cc2c([nH]c3ccccc23)[C@@H](c2ccc3c(c2)OCO3)N1`, for which the IC50 was found to be 700 nM.

Regarding `CCOC(=O)[C@H]1Cc2c([nH]c3ccccc23)[C@@H](c2ccc(OC)cc2)N1`, the IC50 is 850 nM.

On to `COC(=O)C1Cc2c([nH]c3ccccc23)C(c2ccccc2Cl)N1` (centres unmarked), for which the IC50 was 800 nM.

For `CCCCNC(=O)C1Cc2c([nH]c3ccccc23)C(c2cccc(Cl)c2)N1` (centres unmarked), the concentration for half-maximal inhibition (IC50) was found to be 900 nM.

In the case of `CCCCNC(=O)C1Cc2c([nH]c3ccccc23)C(c2ccc(OC)cc2)N1` (centres unmarked), the IC50 is 200 nM.

Regarding `COC(=O)[C@@H]1Cc2c([nH]c3ccccc23)[C@@H](c2ccc3c(c2)OCO3)N1`, the IC50 came out at 470 nM.

With `CCOC(=O)[C@@H]1Cc2c([nH]c3ccccc23)[C@H](c2ccc3c(c2)OCO3)N1`, the IC50 amounted to 200 nM.

On to `COC(=O)[C@H]1Cc2c([nH]c3ccccc23)[C@@H](c2ccc3c(c2)OCO3)N1C(=O)Oc1ccc([N+](=O)[O-])cc1`, for which the half-maximal inhibitory concentration (IC50) came to 500 nM.

In the case of `CCOC(=O)[C@H]1Cc2c([nH]c3ccccc23)[C@H](c2ccc(OC)cc2)N1`, the 50% inhibitory concentration (IC50) worked out at 650 nM.

Another test concerns the target recombinant human PDE5 (Homo sapiens, UniProt O76074). Kind of test: Inhibitory effect on cGMP-PDE, one-step assay, human recombinant PDE5. Particulars: read-out: PDE5 IC50, Table 2, Intermediates. As for the experimental part:
The compounds of structural formula (I) were tested for an ability to inhibit PDE5. The ability of a compound to inhibit PDE5 activity is related to the IC50 value for the compound, i.e., the concentration of inhibitor required for 50% inhibition of enzyme activity. The IC50 value for compounds of structural formula (I) were determined using recombinant human PDE5.
Recombinant production of human PDE1B, PDE2, PDE4A, PDE4B, PDE4C, PDE4D, PDE5, and PDE7 was carried out similarly to that described in Example 7 of U.S. Pat. No. 5,702,936, incorporated herein by reference, except that the yeast transformation vector employed, which is derived from the basic ADH2 plasmid described in Price et al., Methods in Enzymology, 185, pp. 308–318 (1990), incorporated yeast ADH2 promoter and terminator sequences and the Saccharomyces cerevisiae host was the protease-deficient strain BJ2-54 deposited on Aug. 31, 1998 with the American Type Culture Collection, Manassas, Virginia, under accession number ATCC 74465. Transformed host cells were grown in 2×SC-leu medium, pH 6.2, with trace metals, and vitamins. After 24 hours, YEP medium-containing glycerol was added to a final concentration of 2×YET/3% glycerol. Approximately 24 hr later, cells were harvested, washed, and stored at −70° C.
Phosphodiesterase activity of the preparations was determined as follows. PDE assays utilizing a charcoal separation technique were performed essentially as described in Loughney et al. (1996). In this assay, PDE activity converts [32P]cAMP or [32P]cGMP to the corresponding [32P]5′-AMP or [32P]5′-GMP in proportion to the amount of PDE activity present. The [32P]5′-AMP or [32P]5′-GMP then was quantitatively converted to free [32P]phosphate and unlabeled adenosine or guanosine by the action of snake venom 5′-nucleotidase. […] The assay was performed at 30° C. in a 100 μL reaction mixture containing (final concentrations) 40 mM Tris HCl (pH 8.0), 1 μM ZnSO4, 5 mM MgCl2, and 0.1 mg/mL bovine serum albumin (BSA). PDE enzyme was present in quantities that yield <30% total hydrolysis of substrate (linear assay conditions). The assay was initiated by addition of substrate (1 mM [32P]cAMP or cGMP), and the mixture was incubated for 12 minutes. Seventy-five (75) μg of Crotalus atrox venom then was added, and the incubation was continued for 3 minutes (15 minutes. total). The reaction was stopped by addition of 200 μL of activated charcoal (25 mg/mL suspension in 0.1 M NaH2PO4, pH 4). After centrifugation (750×g for 3 minutes) to sediment the charcoal, a sample of the supernatant was taken for radioactivity determination in a scintillation counter and the PDE activity was calculated.
Cell pellets (29 g) were thawed on ice with an equal volume of Lysis Buffer (25 mM Tris HCl, pH 8, 5 mM MgCl2, 0.25 mM DTT, 1 mM benzamidine, and 10 μM ZnSO4). Cells were lysed in a Microfluidizer® (Microfluidics Corp.) using nitrogen at 20,000 psi. The lysate was centrifuged and filtered through 0.45 μm disposable filters. The filtrate was applied to a 150 mL column of Q SEPHAROSE® FastFlow (Pharmacia). The column was washed with 1.5 volumes of Buffer A (20 mM Bis-Tris Propane, pH 6.8, 1 mM MgCl2, 0.25 mM DTT, 10 μM ZnSO4) and eluted with a step gradient of 125 mM NaCl in Buffer A followed by a linear gradient of 125–1000 mM NaCl in Buffer A. Active fractions from the linear gradient were applied to a 180 mL hydroxyapatite column in Buffer B (20 mM Bis-Tris Propane (pH 6.8), 1 mM MgCl2, 0.25 mM DTT, 10 μM ZnSO4, and 250 mM KCl). After loading, the column was washed with 2 volumes of Buffer B and eluted with a linear gradient of 0–125 mM potassium phosphate in Buffer B. Active fractions were pooled, precipitated with 60% ammonium sulfate, and resuspended in Buffer C (20 mM Bis-Tris Propane, pH 6.8, 125 mM NaCl, 0.5 mM DTT, and 10 μM ZnSO4). The pool was applied to a 140 mL column of SEPHACRYL® S-300 HR and eluted with Buffer C. Active fractions were diluted to 50% glycerol and stored at −20° C. […]
Turning to `COc1ccc(CCNC(=O)C2Cc3c([nH]c4ccccc34)C(c3ccc4c(c3)OCO4)N2)cc1OC` (single isomer, unassigned) [17b], the IC50 was 120 nM.

Take `O=C(Nc1ccc(F)cc1)[C@@H]1Cc2c([nH]c3ccccc23)[C@@H](c2ccc3c(c2)OCO3)N1`: the half-inhibitory concentration (IC50) came to 480 nM.

Turning to `COC(=O)[C@H]1Cc2c([nH]c3ccccc23)[C@@H](c2ccc3c(c2)OCO3)N1`, the IC50 is 360 nM.

As to `COc1ccc(CNC(=O)C2Cc3c([nH]c4ccccc34)C(c3ccc4c(c3)OCO4)N2)cc1OC` (single isomer, unassigned) [16b], the IC50 came to 310 nM.

As for `O=C(NCCCN1CCCC1=O)[C@@H]1Cc2c([nH]c3ccccc23)[C@@H](c2ccc3c(c2)OCO3)N1`, the 50% inhibitory concentration (IC50) was found to be 430 nM.

Consider `O=C(NCCCn1ccnc1)[C@@H]1Cc2c([nH]c3ccccc23)[C@@H](c2ccc3c(c2)OCO3)N1`, for which the IC50 was 680 nM.

`COc1ccc([C@H]2N[C@H](C(=O)NCCc3ccc(OC)c(OC)c3)Cc3c2[nH]c2ccccc32)cc1`: the IC50 is 90 nM.

Take `COCCCNC(=O)C1Cc2c([nH]c3ccccc23)C(c2ccc3c(c2)OCO3)N1` (single isomer, unassigned) [29b]: the 50% inhibitory concentration (IC50) is 230 nM.

`CC(=O)Nc1ccc(CNC(=O)[C@@H]2Cc3c([nH]c4ccccc34)[C@@H](c3ccc4c(c3)OCO4)N2)cc1`: the IC50 was 160 nM.

For `CC(C)NC(=O)[C@@H]1Cc2c([nH]c3ccccc23)[C@H](c2ccc3c(c2)OCO3)N1`, the IC50 was found to be 920 nM.

For `O=C(NCC1CC1)C1Cc2c([nH]c3ccccc23)C(c2ccc3c(c2)OCO3)N1` (single isomer, unassigned) [26b], the IC50 was 540 nM.

For `COc1ccc([C@H]2N[C@H](C(=O)NCCc3ccc(OC)c(OC)c3)Cc3c2[nH]c2ccccc32)cc1Cl`, the half-inhibitory concentration (IC50) was 860 nM.

`COc1ccc(CCNC(=O)C2NC(c3ccc4c(c3)OCO4)c3[nH]c4ccccc4c3C2C)cc1OC` (centres unmarked): the concentration for half-maximal inhibition (IC50) was determined as 620 nM.

Consider `CC(C)NC(=O)[C@@H]1Cc2c([nH]c3ccccc23)[C@@H](c2ccc3c(c2)OCO3)N1`, for which the IC50 amounted to 940 nM.

Take `O=C(NC1CC1)[C@@H]1Cc2c([nH]c3ccccc23)[C@@H](c2ccc3c(c2)OCO3)N1`: the concentration for half-maximal inhibition (IC50) amounted to 590 nM.

`O=C(NCCc1ccc(F)cc1)C1Cc2c([nH]c3ccccc23)C(c2ccc3c(c2)OCO3)N1` (single isomer, unassigned) [30b]: the 50% inhibitory concentration (IC50) stood at 420 nM.

For `Nc1ccc(CNC(=O)[C@@H]2Cc3c([nH]c4ccccc34)[C@@H](c3ccc4c(c3)OCO4)N2)cc1`, the IC50 was determined as 330 nM.

On to `O=C(NCCN1CCOCC1)[C@@H]1Cc2c([nH]c3ccccc23)[C@@H](c2ccc3c(c2)OCO3)N1`, for which the IC50 came out at 420 nM.

With `O=C(NC1CCCCC1)[C@@H]1Cc2c([nH]c3ccccc23)[C@@H](c2ccc3c(c2)OCO3)N1`, the IC50 turned out to be 800 nM.

As for `COCCCNC(=O)C1NC(c2ccc3c(c2)OCO3)c2[nH]c3ccccc3c2C1C` (centres unmarked), the IC50 is 770 nM.

For `O=C(NCc1ccc(F)cc1)[C@@H]1Cc2c([nH]c3ccccc23)[C@@H](c2ccc3c(c2)OCO3)N1`, the half-inhibitory concentration (IC50) came to 830 nM.

As to `O=C(Nc1ccccc1)[C@@H]1Cc2c([nH]c3ccccc23)[C@@H](c2ccc3c(c2)OCO3)N1`, the 50% inhibitory concentration (IC50) is 360 nM.

As to `COC(=O)C1Cc2c([nH]c3ccccc23)C(c2ccccc2)N1` (centres unmarked), the 50% inhibitory concentration (IC50) amounted to 650 nM.

`COc1ccc(C2NC(C(=O)NCc3ccccc3)Cc3c2[nH]c2ccccc32)cc1` (centres unmarked): the concentration for half-maximal inhibition (IC50) was found to be 510 nM.

For the compound `O=C(NCCCN1CCOCC1)[C@H]1Cc2c([nH]c3ccccc23)[C@H](c2ccc3c(c2)OCO3)N1`, the 50% inhibitory concentration (IC50) was found to be 960 nM.

With `O=C(NCCc1ccccc1)[C@@H]1Cc2c([nH]c3ccccc23)[C@@H](c2ccc3c(c2)OCO3)N1`, the IC50 was 290 nM.

Turning to `O=C(NCC1CCCCC1)[C@@H]1Cc2c([nH]c3ccccc23)[C@H](c2ccc3c(c2)OCO3)N1`, the half-inhibitory concentration (IC50) came out at 680 nM.

With `O=C(NCC1CC1)C1Cc2c([nH]c3ccccc23)C(c2ccc3c(c2)OCO3)N1` (single isomer, unassigned) [26a], the IC50 was found to be 820 nM.

For `CNC(=O)[C@@H]1Cc2c([nH]c3ccccc23)[C@H](c2ccc3c(c2)OCO3)N1`, the half-inhibitory concentration (IC50) turned out to be 860 nM.

As for `O=C(NCCc1ccc(F)cc1)C1Cc2c([nH]c3ccccc23)C(c2ccc3c(c2)OCO3)N1` (single isomer, unassigned) [30a], the IC50 stood at 780 nM.

For `COc1ccc(CCNC(=O)[C@@H]2Cc3c([nH]c4ccccc34)[C@@H](c3ccccc3)N2)cc1OC`, the IC50 turned out to be 230 nM.

Regarding `COCCCNC(=O)C1Cc2c([nH]c3ccccc23)C(c2ccc3c(c2)OCO3)N1` (single isomer, unassigned) [29a], the IC50 is 340 nM.

For the compound `O=C(NCc1ccccc1)[C@H]1Cc2c([nH]c3ccccc23)[C@H](c2ccc3c(c2)OCO3)N1`, the IC50 turned out to be 760 nM.

Take `O=C(NCCc1ccccc1)[C@@H]1Cc2c([nH]c3ccccc23)[C@H](c2ccc3c(c2)OCO3)N1`: the IC50 is 920 nM.

`COc1ccc(CCNC(=O)C2Cc3c([nH]c4ccccc34)C(c3ccc4c(c3)OCO4)N2)cc1OC` (single isomer, unassigned) [17a]: the IC50 was determined as 380 nM.

On to `O=C(NCCc1ccccn1)[C@@H]1Cc2c([nH]c3ccccc23)[C@@H](c2ccc3c(c2)OCO3)N1`, for which the 50% inhibitory concentration (IC50) was 220 nM.

Turning to `COc1ccc(CNC(=O)C2Cc3c([nH]c4ccccc34)C(c3ccc4c(c3)OCO4)N2)cc1OC` (single isomer, unassigned) [16a], the IC50 is 530 nM.

On to `NC(=O)[C@@H]1Cc2c([nH]c3ccccc23)[C@@H](c2ccc3c(c2)OCO3)N1`, for which the 50% inhibitory concentration (IC50) was 890 nM.
